Patent publication US20240016735A1, “IONIC LIQUIDS FOR DRUG DELIVERY” (PRESIDENT AND FELLOWS OF HARVARD COLLEGE, priority 2019, published 2024)

Settings: cation:anion 1:2

choline and 4-phenolsulfonic acid [CASA]
physical state at room temperature: solidified or formed a gel
